scFv variants of Ab-95 (light chain) against a SARS-CoV-2 spike peptide

The target is the same throughout: PDVDLGDISGINAS, from the HR2 region of SARS-CoV-2 spike.

Each scFv is VH, a 15-residue (Gly4Ser)3 linker, VL, as in the parent Ab-95, and differs from it in the CDRs of the light chain only.
VH: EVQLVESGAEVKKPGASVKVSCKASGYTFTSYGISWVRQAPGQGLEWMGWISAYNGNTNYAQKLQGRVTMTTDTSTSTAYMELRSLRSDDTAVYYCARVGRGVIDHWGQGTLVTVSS
VL: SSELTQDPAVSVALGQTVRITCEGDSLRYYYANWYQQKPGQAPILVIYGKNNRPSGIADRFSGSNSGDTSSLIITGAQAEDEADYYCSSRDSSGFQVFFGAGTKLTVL

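The starting antibody came from a phage panning campaign against this peptide. The library (AAYL52) carries one to three amino acid substitutions per variant, with no insertions or deletions. The scFvs were displayed on barcoded MATa yeast, the peptide on MATalpha yeast. Mating (16 h, 30 °C) was followed by selection of diploids and sequencing of their barcodes. The ratio of observed to expected reads was calibrated, replicate by replicate, on BCL2-family standards whose Kd was known from biolayer interferometry. Each pool was mated in three replicate cultures.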

Variants are written as CDR1, CDR2 and CDR3 of the light chain (limits as in the source). Parent: EGDSLRYYYAN, GKNNRPS, SSRDSSGFQVF.
Affinities are written as log10 Kd with Kd in nM; a lower number is a better binder.
Averages over replicates are reported, and they cover detected replicates only.
"ND" means that the variant was in the library but no mating with the target was seen in that replicate; the authors take this as a sign of poor binding, and no number exists.
Background: pairings of library AAYL52 with three empty control strains gave a value in 28% of cases (median 3.91, 5th percentile 2.90). Values in that range, when seen in few replicates, are hard to tell from nonspecific mating. For each scFv, signals with the empty controls are counted beside the result, with their mean in brackets.

CDR-L1	CDR-L2	CDR-L3	log10 Kd (nM) by replicate	log10 Kd (nM), mean	empty controls
EGDQLRYYYAN	GKNNRPS	SSRDSTAFQVF	4.51 / 3.18 / ND	3.84	1 of 9 (2.77)
EGDSLRYYYAN	GKFNRPA	CSRDSSGFQVF	ND / ND / ND	ND	0 of 9
EGDSLRYYYAN	GKNNFRS	SYRDSSGFQVF	4.96 / ND / ND	4.96	1 of 9 (5.23)
SGDSLRYYYAN	GKNNRPS	MYRDSSGFQVF	4.66 / 4.40 / ND	4.53	5 of 9 (3.89)
EGDSLRYYYAN	AKNNRPS	SSRDSQGSQVF	2.99 / 2.81 / ND	2.90	4 of 9 (3.94)
EGDSLRYYYAN	GKNGRPS	SSRDSSGKKVF	ND / 3.01 / 3.74	3.37	1 of 9 (2.53)
NGDSLRYYYAV	GKNNRPS	SSRDSSGFQVF	4.40 / 4.24 / ND	4.32	3 of 9 (4.61)
EGDSLRYYEAN	GKNNRPS	DSRDSSGFQVF	1.62 / 1.49 / 1.25	1.45	1 of 9 (3.62)
EGVSLRYYYAN	GKNNRHS	RSRDSSGFQVF	2.79 / 3.28 / 4.25	3.44	1 of 9 (4.75)
EKDSLRYYYAD	GKNNRPS	QSRDSSGFQVF	ND / 4.72 / ND	4.72	0 of 9
EGDSLRYYYAF	GKNNYPS	SSRDSSGFKVF	5.38 / ND / ND	5.38	4 of 9 (4.62)
CGDSLRYYYAN	GKNNRPS	SSCDSSGYQVF	2.37 / 1.78 / 2.39	2.18	1 of 9 (4.95)
IGDHLRYYYAN	GKNRRPS	SSRDSSGFQVF	ND / 3.18 / 3.30	3.24	1 of 9 (4.87)
EGDSLRYYYAW	GKNNRPS	SSIDSYGFQVF	4.12 / 3.31 / ND	3.72	3 of 9 (4.45)
EGDSLRYYYAN	GKNNRPS	SSRDSSGFWHN	ND / 4.75 / ND	4.75	2 of 9 (3.19)
EGDSLRYYYAN	GKNNRPS	VSRDSSGFFAF	4.26 / ND / 4.16	4.21	0 of 9
NGDSLRYYYAN	GKNNRPS	SSGDSSGFQVC	3.57 / 3.22 / 3.97	3.58	4 of 9 (3.61)
EGDSLRCYYAN	GRNNRPG	SSRDSSGFQVF	ND / ND / ND	ND	2 of 9 (3.53)
EGDSLRYYYMN	GKNNFPS	STRDSSGFQVF	ND / ND / 3.84	3.84	3 of 9 (4.57)
EGDSLNYYYLN	GKNNRPS	SSRSSSGFQVF	2.42 / 2.16 / 2.26	2.28	5 of 9 (3.61)
EGDSIRCYYAN	GKNLRPS	SSRDSSGFQVF	4.39 / 4.36 / 3.76	4.17	3 of 9 (3.28)
EGDSTRYYYAN	GKDKRPS	SSRDSSGFQVF	3.19 / 5.52 / 3.21	3.97	1 of 9 (3.39)
EGDSLRYYYAN	YKNNLPS	SSRDSSGFFVF	ND / ND / ND	ND	0 of 9
EGDSLRYYYAN	GKNNRPS	SSADSSGKQSF	3.12 / 3.97 / 2.32	3.14	2 of 9 (3.75)
EGDSLRYYYAN	GKNNHPL	SSRDSSGFGVF	2.74 / 3.56 / 3.86	3.39	2 of 9 (3.72)
EGDSLRYYYAN	GKVNRPF	GSRDSSGFQVF	ND / 3.40 / ND	3.40	1 of 9 (4.33)
QGDSLRYYYAK	GKNNRPS	SYRDSSGFQVF	3.70 / ND / 2.66	3.18	6 of 9 (4.26)
EGDSLRYGYAN	GKNNRPS	SSPPSSGFQVF	1.59 / 1.44 / 0.97	1.33	3 of 9 (3.88)
EGDALRYIYAN	GKNNRPS	SSRDSSGFDVF	3.83 / 3.51 / 3.93	3.76	1 of 9 (3.52)
TGISLRAYYAN	GKNNRPS	SSRDSSGFQVF	2.52 / 2.30 / 2.22	2.35	5 of 9 (4.44)
EGNSLRYYYAN	GKNNRPS	SSRDFSMFQVF	ND / ND / ND	ND	0 of 9
EGTSLRYYYEN	GKNNRPS	SSRDSSGFRVF	3.76 / 4.45 / ND	4.10	7 of 9 (4.31)
EGDELRYYYAI	GKNNRPS	SSRDSSGFQHF	ND / 4.36 / 3.04	3.70	3 of 9 (4.09)
EGDSLRYYYAN	WMNNRPS	SSNDSSGFQVF	ND / ND / 4.06	4.06	0 of 9
EGDGLRYYYAN	GLNNRKS	SSRDSSGFQVF	ND / 3.38 / ND	3.38	1 of 9 (4.78)
EGDSLRYAYAN	GKNNRPP	SSRDSIGFQVF	2.49 / 1.96 / 2.39	2.28	2 of 9 (3.84)
EGDSLRYYYAN	GFNNRPS	SSRDSSMTQVF	3.52 / ND / ND	3.52	2 of 9 (3.56)
EGDSLRYYYAN	GKNNTPS	SDRDSSGFNVF	3.58 / ND / 3.45	3.51	3 of 9 (3.39)
RGDSLRRYYAP	GKNNRPS	SSRDSSGFQVF	3.52 / 3.18 / ND	3.35	4 of 9 (4.18)
EGDSLRYWYAN	GKNNRPH	SSRDTSGFQVF	3.83 / 3.65 / 3.99	3.82	2 of 9 (3.58)
EGDSLRYWYAN	GKNCRPS	SSRDSSGFQVG	2.94 / 3.02 / 3.08	3.01	6 of 9 (3.55)
EGDSLRYEYAN	GKNNRPS	SSRDVSGFQVC	2.62 / 2.41 / 2.67	2.57	4 of 9 (4.22)
EGDSLRYYSIN	GKNNRPS	SSRDSSGAQVF	2.24 / 1.92 / 1.70	1.95	1 of 9 (3.65)

For reference, 4 entries of the list once more:

CDR-L1	CDR-L2	CDR-L3	log10 Kd (nM) by replicate	log10 Kd (nM), mean	empty controls
EGDSLRYYYMN	GKNNFPS	STRDSSGFQVF	ND / ND / 3.84	3.84	3 of 9 (4.57)
TGISLRAYYAN	GKNNRPS	SSRDSSGFQVF	2.52 / 2.30 / 2.22	2.35	5 of 9 (4.44)
RGDSLRRYYAP	GKNNRPS	SSRDSSGFQVF	3.52 / 3.18 / ND	3.35	4 of 9 (4.18)
EGDSLRYWYAN	GKNCRPS	SSRDSSGFQVG	2.94 / 3.02 / 3.08	3.01	6 of 9 (3.55)

From the AlphaSeq antibody data of Engelhart et al. 2022 (doi:10.1038/s41597-022-01779-4), copy in the FLAb collection.